The subject of this experiment is progranulin (PGRN) secretion, BV-2 cells. Kind of experiment: PGRN assay: progranulin induction cellular assay (ELISA of secreted mouse PGRN). Conditions: Table C, secreted mouse PGRN in cell culture medium. Format: cell-based. (In general: In an ELISA, binding on a coated surface is turned into a signal by an enzyme label.)

Here are results for one compound from patent publication US20220251084A1, “PROGRANULIN MODULATORS AND METHODS OF USING THE SAME” (ARKUDA THERAPEUTICS, priority 2019, published 2022).

By EC50 is commonly meant the midpoint of the concentration-response curve.

`O=C(O[C@@H]1CN2CCC1CC2)C(=O)N1CCc2ccccc2[C@@H]1c1ccc(F)cc1`: the EC50 is > 10 µM.
